Values quoted from earlier work, collected in patent US12691107B2, “Methods for the treatment and prevention of lung infections caused by gram-positive bacteria, fungus, or virus by administration of tafenoquine” (priority 2020, dated 2026).

System: Staphylococcus aureus
Conditions: cited from earlier work

## COc1cc(NC(C)CCCN)c2ncccc2c1 (stereo not shown) [Primaquine]
  MIC: 50 microgram/ml
